According to patent US8362065B2, “Carbazole carboxamide compounds useful as kinase inhibitors” (Bristol-Myers Squibb Company, priority 2008, dated 2013):
pIC50: −log10 of the molar value.

Amino acid sequences for entries named in this document (tags omitted).
UniProt Q06187, whole entry: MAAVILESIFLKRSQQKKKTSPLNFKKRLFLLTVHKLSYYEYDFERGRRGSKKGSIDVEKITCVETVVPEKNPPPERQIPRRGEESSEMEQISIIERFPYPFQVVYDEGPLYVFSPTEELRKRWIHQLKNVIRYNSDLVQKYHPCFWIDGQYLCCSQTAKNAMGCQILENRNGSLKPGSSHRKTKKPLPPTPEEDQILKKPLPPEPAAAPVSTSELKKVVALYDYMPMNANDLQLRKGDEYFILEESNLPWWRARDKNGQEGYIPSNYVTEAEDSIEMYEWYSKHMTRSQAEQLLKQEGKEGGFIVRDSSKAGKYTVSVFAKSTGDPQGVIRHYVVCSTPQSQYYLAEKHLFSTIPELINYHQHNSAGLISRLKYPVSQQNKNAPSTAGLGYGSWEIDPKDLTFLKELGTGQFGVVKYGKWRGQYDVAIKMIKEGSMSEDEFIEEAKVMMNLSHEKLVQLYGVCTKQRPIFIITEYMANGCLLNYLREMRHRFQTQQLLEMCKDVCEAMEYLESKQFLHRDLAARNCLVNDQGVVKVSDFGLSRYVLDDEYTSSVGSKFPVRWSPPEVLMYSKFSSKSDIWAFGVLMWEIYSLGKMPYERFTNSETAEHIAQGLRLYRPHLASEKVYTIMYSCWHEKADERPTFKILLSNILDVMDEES

Target: human recombinant Btk (Homo sapiens, UniProt Q06187)
Test: Human Recombinant Btk Enzyme Assay
Type: biochemical
Details: read-out: IC50 for Inhibition of Btk; human recombinant Btk 1 nM, ATP 20 μM, 60 min at room temperature

SMILES: Cc1nc(N(C(=O)OC(C)(C)C)C(=O)OC(C)(C)C)sc1-c1ccc(C(N)=O)c2[nH]c3c(c12)CCC(C(=O)NC1CCOCC1)C3 (stereo not shown)
- pIC50: 5.74
